# Source: US7482024B2, “Compositions comprising an active agent” (Nektar Therapeutics, priority 1999, dated 2009)
# Values joined by “and” are separate entries in the source; they are usually repeats but may differ in a detail not shown here. Equal values may be shown once.
# Experiment: Surface tension measurement, Kruss Processor Tensiometer-K12, Wilhelmy-method (plate method)
# Assay type: physicochemical
# Details: 0.2% (wt/vol) plus raffinose to 1% total solids, 25° C.
# Description: A “surface active” material is one having surface activity (measured, e.g., by surface tensiometry), as characterized by its ability to reduce the surface tension of the liquid in which it is dissolved. […] A peptide that is more surface active than another peptide is one which decreases the surface tension of water to a greater extent, when present in the liquid at the same concentration and measured under the same set of experimental conditions. The surface tension of several representative dipeptides, tripeptides, and proteins was measured at 25° C. and 45° C. to provide an indication of their relative surface activities. Surface tension measurements were carried out using a Kruss Processor Tensiometer-K12 with the Wilhelmy-method (Plate method). Solutions were prepared by dissolving either 0.05%, 0.2%, or 0.6% peptide/protein (by weight) along with an appropriate amount of raffinose by weight to provide final solutions having a 1.0% by weight solids content. Surface tension measurements at 25° C. and 45° C. were then obtained for the test solutions at three different time points (49 seconds, 100 seconds and 194 seconds).
Surface tension (ST) (49 s),Surface tension (ST) (100 s),Surface tension (ST) (194 s),Substance
72.4 mN/m and 72.2 mN/m and 72.3 mN/m,72.4 mN/m and 72.2 mN/m,72.3 mN/m and 72.2 mN/m,tri-alanine [reference compound]
72.1 mN/m and 72.4 mN/m,72.1 mN/m and 72.4 mN/m,72.1 mN/m and 72.4 mN/m and 72.3 mN/m,tri-glutamate [reference compound]
